# Literature values in patent publication EP2456327B1, “A PROCESS FOR PRODUCING WATER ENRICHED WITH NATURAL OR[…], STILL WATER OBTAINED BY THE SAID PROCESS, COSMETIC AND THERAPEUTIC USE OF SAID WATER” (SOCIETE ANONYME DES EAUX MINERALES D'EVIAN, "S.A.E.M.E", priority 2009, dated 2011).
# Read-outs that look alike come from different tables or passages of the source.
# Key:
# [1] = Martin, The Journal of Nutrition, Health & Aging, 2007
substance,measurement,setting,value
orthosilicic acid,solubility,4°C and same pH (7.0),85 µg/mL
same,solubility,20°C and a pH of 7.0,115 µg/mL
same,solubility in water,"25°C and neutral pH, expressed in milligrams of SiO2 per liter of water",around 120 mg/l
same,"absorbed, of the total ingested amount",[1],> 50%
